Measurements published in ChEMBL document CHEMBL2046316, “NOpiates: Novel Dual Action Neuronal Nitric Oxide Synthase Inhibitors with μ-Opioid Agonist Activity” (2012).

Chains of the proteins cited; added tags and fusions are not shown.
UniProt P35372, whole entry, looked up: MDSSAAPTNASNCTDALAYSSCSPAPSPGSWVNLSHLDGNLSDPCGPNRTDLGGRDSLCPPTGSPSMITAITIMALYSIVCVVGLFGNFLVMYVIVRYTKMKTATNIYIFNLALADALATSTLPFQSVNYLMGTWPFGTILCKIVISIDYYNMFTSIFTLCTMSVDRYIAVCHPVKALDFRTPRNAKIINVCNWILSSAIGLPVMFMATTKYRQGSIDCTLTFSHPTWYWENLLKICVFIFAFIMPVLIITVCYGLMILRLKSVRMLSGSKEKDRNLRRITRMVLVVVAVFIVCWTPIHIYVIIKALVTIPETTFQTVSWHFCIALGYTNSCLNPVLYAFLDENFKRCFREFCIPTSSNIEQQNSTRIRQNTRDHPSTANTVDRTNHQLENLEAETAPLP

Key:
[1] = target: T1, Mu-type opioid receptor (Homo sapiens, UniProt P35372); test: Displacement of [3H]DAMGO from human mu opioid receptor expressed in HEK-293 cells by scintillation counting; settings: hek293
[2] = target: T1, Mu-type opioid receptor; settings: cho

CC[C@@H](c1cccc(O)c1)[C@@H](C)CN(C)C
Ki [1]: 160 nM | EC50 [2]: 670 nM
